Drawing on PMC12457078, “Inhibition of soluble epoxide hydrolase in endotoxin induced pig lung injury” (Frontiers in Pharmacology, 2025), this text covers IC50 for one compound.

By UniProt entry, the sequences of proteins in these tests, tags left out.
UniProt Q6Q2C2, whole entry: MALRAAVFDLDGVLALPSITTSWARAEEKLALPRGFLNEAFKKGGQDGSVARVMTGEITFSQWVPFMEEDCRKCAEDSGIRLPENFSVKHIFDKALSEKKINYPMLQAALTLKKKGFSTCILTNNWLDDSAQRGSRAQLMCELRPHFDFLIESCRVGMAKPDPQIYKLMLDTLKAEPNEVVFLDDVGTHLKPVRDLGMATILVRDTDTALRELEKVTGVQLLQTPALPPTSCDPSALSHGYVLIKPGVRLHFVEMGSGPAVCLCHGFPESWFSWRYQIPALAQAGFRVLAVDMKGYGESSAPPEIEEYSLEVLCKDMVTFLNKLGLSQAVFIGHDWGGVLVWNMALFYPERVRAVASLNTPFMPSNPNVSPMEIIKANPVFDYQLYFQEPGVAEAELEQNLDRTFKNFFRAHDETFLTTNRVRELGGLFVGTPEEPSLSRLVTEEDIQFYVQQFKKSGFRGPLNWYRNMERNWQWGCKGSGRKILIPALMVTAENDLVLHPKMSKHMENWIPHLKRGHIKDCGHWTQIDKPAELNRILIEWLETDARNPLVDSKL

The target of this test is Recombinant porcine sEH (Sus scrofa, UniProt Q6Q2C2). Kind of test: fluorescent activity assay (MNPC substrate), sEH inhibition potency.

Consider `O=C(O)CCCCCCCCCCCNC(=O)NC12CC3CC(CC(C3)C1)C2` [Compound 700], for which the IC50 was determined as 4 nM.
